In ChEMBL document CHEMBL2146414, “Lignan derivatives from Krameria lappacea roots inhibit acute inflammation in vivo and pro-inflammatory mediators in vitro” (J Nat Prod, 2011):

Test system: Mus musculus
Assay: Antiinflammatory activity in CD1 mouse ear dermatitis model assessed as inhibition of Croton oil-induced ear edema administered topically per cm'2 of ear measured after induction of dermatitis relative to untreated control
Assay type: functional
In short: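 Male CD-1 mice (28–32 g), anesthetized with ketamine 145 mg/kg i.p.; right ear (about 1 cm2) given 80 μg croton oil in 15 μL acetone, with test substance co-applied in acetone; left ear left untreated. Controls received irritant only. 6 mm punches taken from both ears; edema = weight difference treated minus untreated; % inhibition vs controls. ID50 by graphic interpolation of log dose–effect curves; ANOVA with Dunnett's test.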

Work on C/C=C/c1ccc2c(c1)[C@@H](C)[C@H](c1ccc(O)cc1)O2 yielded an ID50 of 0.31 umol/cm2.
